Here are results for nine substances from patent publication US8287850B2, “Conjugates of hydroxyalkyl starch and a protein, prepared by reductive amination” (Fresenius Kabi Deutschland GmbH, priority 2004, dated 2012).

Like-named read-outs stand apart in the source and are kept apart here.

A short description of data set [1]: PK study in mice: antiviral activity of pooled serum after i.v. injection. The note with it: 30 μg/kg i.v. It is filed as in vivo. The protocol: Antiviral activity of pooled serum was tested in the antiviral assay. Serum was collected from two mice (female BALB/c mice, aged 8 weeks) at each time, which were sacrificed 2 h, 4 h, 12 h, and 24 h post i.v.-injection of 30 μg/kg (based on the protein content) of IFN-alpha or the IFN-alpha-HES conjugate.
The serum samples were thawed and thoroughly homogenized by vortexing (and diluted). Serial two-fold dilutions were prepared in cell culture medium. A vial of Intron A (diluted) was thawed and thoroughly homogenized by vortexing. Serial two-fold dilutions were prepared in cell culture medium.
The EC50-dilutions in the CPE-assay were determined from dose response curves of a 1:2 dilution series as described in example 9.
The half life of the materials was determined compared to unmodified starting material and Pegasys. The half life was calculated from a semi-logarithmic plot of the EC50-dilution vs. time post injection.

For data set [2] the following is noted: rabbit, in vivo, iv.
The test system of data set [3] is VSV in MDBK cells. It counts as cell-based.
Data set [4] deals with VSV in MDBK cells. The note with it: standard's stated activity; cited from earlier work.

Turning to “IFN-alpha-HES 30/0.8: IFN-alpha conjugated with aldehydoHES of example 8.2.16 (MW 29.3 kD, DS 0.86)”, the “half-life (semi-logarithmic plot of the EC50-dilution vs. time post injection)” value in data set [1] is “approx. 6.5 h”.
Still for that read-out and setting: for “IFN-alpha-HES 100/0.7: IFN-alpha conjugated with aldehydoHES of example 8.2.18 (MW 97.9 kD, DS 0.76)” the value was approximately 6.8 h; for “IFN-alpha-HES (example 8.3.2, entry B of the table): IFN-alpha conjugated with aldehydo-HES of example 8.2.4 (AldehydoHES10/0.7)”, “approx. 3 h”.
Turning to “IFN-alpha-HES (example 8.3.2, entry D of the table): IFN-alpha conjugated with aldehydo-HES of example 8.2.8 (AldehydoHES30/0.7); sample of the rabbit PK study”, the “half-life (semi-logarithmic plot of the EC50-dilution vs. time post injection)” value in data set [1] is recorded as “approx 5 h”. In addition, in data set [2], the “half-life compared to the starting material” value was “distinct prolongation of half-life”; the “half-life t½, non compartment model” value amounted to 42.7 h; the “half-life t½, one compartment model” value was 7.7 h.
For “IFN-alpha-HES (example 8.3.4): IFN-alpha conjugated with aldehydo-HES of example 8.2.14 (MW 56.8 kD, DS 0.76), 16 mg scale”, in data set [3] (from CPE50 concentration), the “antiviral activity compared to Intron A” value is listed as “more than 25%”. Besides, the “half-life (semi-logarithmic plot of the EC50-dilution vs. time post injection)” value in data set [1] is on record as “approx. 7 h”.
Take “Intron A: IFN-alpha 2b, Schering-Plough; internal lab reference [reference compound]”: in data set [3] (calibrated against NIH-standard rhIFN-alpha 2a), the specific activity is on record as 8,487,000 IU/ml.
On to “NIH-standard: NIH-standard rhIFN-alpha 2a (NIAID, NIH, Gxa01-901-535)”, for which the specific activity in data set [4] was 9,000 IU/ml.
Regarding “PegIntron: commercially available PEGylated IFN-alpha (SP) [reference compound]”, in data set [1], the “half-life (semi-logarithmic plot of the EC50-dilution vs. time post injection)” value is given as “approx. 3.6 h”.
Take “mock incubated IFN-alpha-HES: reaction control: IFN-alpha incubated with non-oxidized HES10/0.4 (Mw 7.6 kD; DS 0.41)”: in data set [3] (mock incubation (reaction control)), the “in vitro bioactivity compared to unmodified starting material” value is given as “did not affect the in vitro bioactivity”.
